Assay outcomes (PubChem BioAssay)
Hits are enriched below; roughly 0.92% of the tested compounds scored in any of these assays.
GALK inhibitor = galactokinase (human) inhibition; Potency, µM (series often up to 57.5 µM), for inactives: at the highest dose activity change, negative = inhibition, hits mostly inhibitors; P51570; 270,000 compounds, 0.007% hits; AID 1868; Purified GALK, Kinase-Glo residual ATP luminescence; further: potency means the concentration at half of the fitted maximal effect; on the % scale 0 is the no-effect control and ±100 the full control effect
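Kinase-Glo Plus luminescence measured ATP left after a 1 h room-temperature reaction. The reaction used 5 nM GALK, 100 uM galactose and 35 uM ATP at pH 8.0 (20 mM HEPES, 5 mM MgCl2, 60 mM NaCl, 1 mM DTT, 0.01% BSA).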
PKM2 act = PKM2 (human) enzyme activation; 260,000 compounds, 0.34% hits; Potency, µM (series often up to 57.5 µM), inactives show at the highest dose activation, usual class: activators; purified PKM2, Kinase-Glo ATP luminescence, activation; response scale: 0% is enzyme alone, no compound; AID 1631; further: potency means the concentration at half of the fitted maximal effect; on the % scale 0 is the no-effect control and ±100 the full control effect; nearly all actives have a fitted effect of over 55% in size
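ATP formation by purified human PK-M2, quantified via coupled luciferase luminescence after 1 h at room temperature with 0.1 mM ADP and 0.5 mM PEP final.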
RXFP1 ag = activates the human relaxin receptor RXFP1; Q9HBX9; HEK293T-RXFP1 cAMP TR-FRET, 30 min; response scale: percent of porcine relaxin response, buffer zero; Potency, µM (titrated, usually from 57.5 µM), for the others: at the highest dose activation, actives largely listed as activators; 370,000 compounds, 0.3% hits; AID 2676; further: potency means the concentration at half of the fitted maximal effect; on the % scale 0 is the no-effect control and ±100 the full control effect; nearly all actives have a fitted effect of over 60% in size
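HEK293T cells stably expressing RXFP1 were pretreated with the PDE4 inhibitor Ro 20174, exposed to compounds for 30 min at 37C, lysed, and cAMP was read by TR-FRET. Data normalized to buffer (basal) and 29 nM porcine relaxin (100%).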
miR-21 reporter = miR-21 reporter, rising signal | HeLa miR-21 FLuc reporter, luciferase, 48 h | Potency, µM (highest dose often 38.3 µM), for inactives: at the top dose reporter change, positive = more light | 340,000 tested, under 10 active | AID 2288; active = well fitted rising curve with a large enough effect; inconclusive = small, poorly fitted or top-dose-only effect; inactive = no such curve, though single readings can be large or run the other way;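 further: % of control where 0% means no effect; miR-21 action dims this reporter so a rising signal means less miR-21 action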
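Compounds were titrated across several concentrations (up to approximately 40 uM) and incubated 48 hours with HeLa miR-21-FLuc reporter cells (miR-21 target sequence downstream of FLuc, endogenous miR-21). Readout was firefly luciferase luminescence after lytic detection reagent.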
RXFP1 antag = antagonists of human relaxin receptor RXFP1 | activity change, negative = inhibition, % at 57.5 µM | HEK293-RXFP1, relaxin-stimulated cAMP HTRF, 30 min; stronger effect = lower value | Q9HBX9 | 350,000 compounds, 0.59% hits;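 active means activity change of -60% or lower, but not beyond a set lower limit; inconclusive means change between -60% and -40%, or beyond the set limit; inactive means change above -40%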; further: on the % scale 0 is the no-effect control and ±100 the full control effect
KinaseGlo FLuc = counter-screen: inhibitors of Kinase-Glo firefly luciferase | Q27757 | Kinase-Glo luciferase, ATP luminescence, 8 min | Potency, µM (doses to about 38.3 µM), for inactives: top-dose activity change, negative = inhibition, most hits filed as inhibitors | 200,000 compounds, 0.28% hits; further: potency means the concentration at half of the fitted maximal effect; on the % scale 0 is the no-effect control and ±100 the full control effect; nearly all actives have a fitted effect of over 60% in size
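Kinase-Glo luciferase light output from ATP and luciferin was measured with 10 uM ATP, within the enzyme's linear range. Buffer: 50 mM imidazole pH 7.2, 50 mM KCl, 7 mM MgCl2, 0.01% Tween 20, 0.05% BSA; luminescence read after 8 min at ambient temperature.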
* marks the source's active call; other numbers are inactive results; ? = inconclusive; / = no result; ! = a repeat was not active; [ ] = another dose, or the depositor's remark. Unless noted, the call rests on the fitted dose curve; in most records, active means well fitted curve in the direction sought with a large enough effect; inconclusive means small, poorly fitted or top-dose-only effect, or another doubt; inactive means no such curve, though single readings can be large; an effect the other way counts as inactive or inconclusive.

1: CC(C)NC(=O)c1ccc(C=O)cc1
2: Oc1ccc(-c2nc3ccc(Cl)cn3c2Nc2ccc(Cl)cc2)cc1
3: CC(C)(C)Nc1c(-c2ccc(O)cc2)nc2ccc(Cl)cn12
4: COc1cc2cc3c4c(cc(OC)c(OC)c4c2cc1OC)CCN3C
5: Cc1cccc(OCC(=O)N/N=C/c2ccc(N(C)C)cc2)c1
6: Cc1ccc(S(=O)(=O)N2CCCCC2)cc1NC(=O)Cn1cnnn1
7: O=C(Cn1cnnn1)Nc1cccc(S(=O)(=O)N2CCCCC2)c1
8: CS(=O)(=O)Nc1cccc(-c2ccc3ncnc(NCc4cccnc4)c3c2)c1
9: C/C(=N/NC(=O)c1cccs1)c1c(C)[nH]n(-c2nc3ccccc3s2)c1=O
10: COc1cc([C@@H]2Oc3cc([C@H]4Oc5cc(O)cc(O)c5C(=O)[C@H]4O)ccc3O[C@H]2CO)ccc1O

| assay / entry | 1 | 2 | 3 | 4 | 5 | 6 | 7 | 8 | 9 | 10 |
| --- | --- | --- | --- | --- | --- | --- | --- | --- | --- | --- |
| GALK inhibitor | / | / | 0% | / | 4% | -1% | 4% | / | / | / |
| PKM2 act | / | / | -9% | / | 2% | 14µM* | 21% | / | -87% | / |
| RXFP1 ag | / | 7% | 0% | / | -1% | 1% | 0% | / | 0% | / |
| miR-21 reporter | / | 22% | 6% | / | -7% | -13% | -5% | / | 18% | / |
| RXFP1 antag | 15 | -67* | -8 | / | -102* | -2 | -2 | / | -7 | / |
| KinaseGlo FLuc | / | / | -1% | 1% | -2% | / | -1% | -1% | 10µM* | 2% |

Reprinted at random: 2 entries already listed, in no set order.
10: COc1cc([C@@H]2Oc3cc([C@H]4Oc5cc(O)cc(O)c5C(=O)[C@H]4O)ccc3O[C@H]2CO)ccc1O
1: CC(C)NC(=O)c1ccc(C=O)cc1

| assay / entry | 10 | 1 |
| --- | --- | --- |
| GALK inhibitor | / | / |
| PKM2 act | / | / |
| RXFP1 ag | / | / |
| miR-21 reporter | / | / |
| RXFP1 antag | / | 15 |
| KinaseGlo FLuc | 2% | / |

Next records follow:
11: CCC(Sc1ccc2nnc(-c3cccnc3)n2n1)C(=O)OC (stereo not drawn)
12: Cc1ccc(NC(=O)CSc2ccc3nnc(-c4cccnc4)n3n2)cc1
13: CC(=O)Nc1ccc(NC(=O)CSc2ccc3nnc(-c4cccnc4)n3n2)cc1
14: CCC(Sc1ccc2nnc(-c3ccc(F)cc3)n2n1)C(=O)OC (stereo not drawn)
15: CCC(CN)=C(c1ccccc1)c1ccccc1
16: COc1cccc([C@@H]2Oc3ccc(Br)cc3C[C@H]2OC(=O)Nc2ccc(C)c(Br)c2)c1
17: CNC(=O)[C@H]1O[C@@H](n2cnc3c(NCc4cccc(I)c4)ncnc32)[C@H](O)[C@@H]1O
18: Cc1cc(C(=O)N2CCCC(C(=O)c3ccc(Oc4ccccc4)cc3)C2)n[nH]1 (stereo not drawn)
19: O=C(c1ccc(Oc2ccccc2)cc1)C1CCCN(C(=O)c2cnccn2)C1 (stereo not drawn)
20: c1ccc(-c2nc(-c3ccccc3)c(NC3CCCCC3)o2)cc1

| assay / entry | 11 | 12 | 13 | 14 | 15 | 16 | 17 | 18 | 19 | 20 |
| --- | --- | --- | --- | --- | --- | --- | --- | --- | --- | --- |
| GALK inhibitor | 5% | 3% | -3% | -1% | / | / | / | / | 6% | / |
| PKM2 act | -2% | -6% | -8% | -2% | / | / | / | -12% | -5% | / |
| RXFP1 ag | 14µM* | ? | 8.9µM* | 9% | / | / | 16µM* | 2% | -1% | / |
| miR-21 reporter | 3% | -7% | 1% | -6% | / | / | / | 23% | 11% | / |
| RXFP1 antag | 22 | 0 | 1 | 24 | -17 | / | / | -85* | -13 | / |
| KinaseGlo FLuc | -1% | / | / | -3% | / | -1% | / | / | / | 0% |

21: CCOc1ccc(/C=C/[N+](=O)[O-])c2ccccc12
22: CCOC(=O)COc1ccc(/C=C/[N+](=O)[O-])c(OCC(=O)OCC)c1
23: CCOC(=O)COc1ccc2ccccc2c1/C=C/[N+](=O)[O-]
24: O=C(c1ccccc1F)N1N=C(C(F)(F)F)CC1(O)c1ccccc1 (stereo not drawn)
25: CN(C)c1ccc(NC(=O)C2C3C=CC(C3)C2C(=O)O)cc1 (stereo not drawn)
26: Fc1ccccc1Cn1nnc2c(NCCc3ccccn3)ncnc21
27: Fc1cccc(Cl)c1Cn1nnc2c(NCc3ccccn3)ncnc21
28: O=C(c1ccc(-c2ccc([N+](=O)[O-])cc2)o1)N1CCCCCCC1
29: O=C(c1ccc(-c2ccc([N+](=O)[O-])cc2)o1)N1CCCC(C(F)(F)F)C1 (stereo not drawn)
30: Cc1cccc(OCC(O)Cn2c(=N)n(CCN3CCCCC3)c3ccccc32)c1 (stereo not drawn)

| assay / entry | 21 | 22 | 23 | 24 | 25 | 26 | 27 | 28 | 29 | 30 |
| --- | --- | --- | --- | --- | --- | --- | --- | --- | --- | --- |
| GALK inhibitor | -5% | -3% | -2% | / | -1% | -3% | 1% | / | / | -3% |
| PKM2 act | -1% | 12% | ? | / | / | 13µM* | 30% | / | / | 4% |
| RXFP1 ag | 2% | 3% | 2% | / | -15% | 2% | 1% | 1% | 5% | 2% |
| miR-21 reporter | ? | ? | ? | / | -7% | -18% | -8% | / | / | 9% |
| RXFP1 antag | -69* | -69* | ? | -7 | -119* | 2 | 5 | -71* | -13 | -63*! |
| KinaseGlo FLuc | -4% | 0% | 8% | / | / | 2% | 1% | / | / | -1% |

31: O=C(NCCO)c1ccc(-n2c(=O)c(=O)[nH]c3ccccc32)cc1
32: O=S(=O)(/C(=C\c1ccc(C(F)(F)F)cc1)c1nc2ccccc2[nH]1)c1ccccc1
33: O=C(NCc1ccco1)/C(=C/c1ccc(C(F)(F)F)cc1)c1nc2ccccc2[nH]1
34: O=C(CN1C(=O)c2ccccc2C1=O)Nc1ccc(S(=O)(=O)N2CCOCC2)cc1
35: COc1ccccc1-n1cnnc1SCC(=O)Nc1nc(C)c(Cl)cc1Cl
36: Cc1ccc2c(c1)Cc1nc3ccccc3nc1-2
37: CCc1ccc(CN(Cc2ccco2)C(=O)c2ccc(C)cc2)cc1
38: Cc1ccc(C(=O)N(Cc2ccc(N(C)C)cc2)Cc2ccco2)cc1
39: Cc1ccc(CN(Cc2ccco2)C(=O)COc2ccc(C(C)C)cc2)cc1
40: Cc1ccsc1CN(Cc1ccco1)C(=O)c1ccc(Cl)cc1

| assay / entry | 31 | 32 | 33 | 34 | 35 | 36 | 37 | 38 | 39 | 40 |
| --- | --- | --- | --- | --- | --- | --- | --- | --- | --- | --- |
| GALK inhibitor | / | / | 0% | 0% | -2% | 13% | / | / | / | / |
| PKM2 act | / | / | -3% | 0% | 2% | -47% | / | / | / | / |
| RXFP1 ag | / | / | 3% | 2% | -1% | 2% | -1% | -1% | 0% | 5% |
| miR-21 reporter | / | / | -46% | 1% | -1% | -2% | 4% | -3% | 9% | 10% |
| RXFP1 antag | / | -77* | -8 | -82* | 2 | -4 | -68* | -22 | -32 | -74* |
| KinaseGlo FLuc | -1% | / | -6% | / | 1% | 8.9µM* | / | / | / | / |

41: Cc1ccc(C(=O)N(Cc2ccco2)Cc2sccc2C)cc1
42: CCOc1ccc(C(=O)N(Cc2ccc(C(C)C)cc2)Cc2ccco2)cc1
43: COC(=O)[C@@]1(Cc2ccccc2-c2ccco2)C=C[C@H](C)[C@@H](c2ccccc2)N1C(=O)C(F)(F)F
44: Cc1cc2ncn(CC(=O)O)c2cc1C
45: Cc1ccc(CSc2ncc(Cl)c(C(=O)Nc3nnc(C)s3)n2)cc1
46: N#CCCCSc1nnnn1-c1cc(C(F)(F)F)cc(C(F)(F)F)c1
47: O=c1[nH]sc2cc(Cl)ccc12
48: Cn1c(=O)c2[nH]c(SCCN3CCOCC3)nc2n(C)c1=S
49: Cc1noc(C)c1CSCC(=O)Oc1ccc(N(C)S(=O)(=O)c2ccc(Cl)cc2)cc1
50: COc1nccnc1NS(=O)(=O)c1ccc(N=Cc2c(C)[nH]n(-c3ccc(C)c(C)c3)c2=O)cc1

| assay / entry | 41 | 42 | 43 | 44 | 45 | 46 | 47 | 48 | 49 | 50 |
| --- | --- | --- | --- | --- | --- | --- | --- | --- | --- | --- |
| GALK inhibitor | / | / | / | / | / | / | / | / | / | -3% |
| PKM2 act | / | / | / | / | / | / | / | / | / | -42% |
| RXFP1 ag | 0% | 3% | / | / | 0% | / | / | / | 0% | 1% |
| miR-21 reporter | 1% | 4% | / | / | -8% | / | / | / | / | -11% |
| RXFP1 antag | -98* | -79* | / | / | / | / | 19 | -72* | 25 | 6 |
| KinaseGlo FLuc | / | / | -3% | -4%[7.66 µM] | / | 0% | / | -2%[7.66 µM] | / | 10µM* |

Single records, from the list above. Values in the order: GALK inhibitor	PKM2 act	RXFP1 ag	miR-21 reporter	RXFP1 antag	KinaseGlo FLuc
`O=C(CN1C(=O)c2ccccc2C1=O)Nc1ccc(S(=O)(=O)N2CCOCC2)cc1` as listed: 0%	0%	2%	1%	-82*	/
`COC(=O)[C@@]1(Cc2ccccc2-c2ccco2)C=C[C@H](C)[C@@H](c2ccccc2)N1C(=O)C(F)(F)F` as listed: /	/	/	/	/	-3%
